Reference: PMC7988493, “The transmembrane peptide DWORF activates SERCA2a via dual mechanisms” (The Journal of Biological Chemistry, 2021)

Sequences of proteins named here, by UniProt entry; tags and fusion partners are left off. A change or cut given only in a name is not applied to a line headed by its entry. A line that says so, or that is headed by a name, gives the form on record, which may keep a tag or linker.
UniProt P16615, other isoform, or with tags, fused parts or gaps: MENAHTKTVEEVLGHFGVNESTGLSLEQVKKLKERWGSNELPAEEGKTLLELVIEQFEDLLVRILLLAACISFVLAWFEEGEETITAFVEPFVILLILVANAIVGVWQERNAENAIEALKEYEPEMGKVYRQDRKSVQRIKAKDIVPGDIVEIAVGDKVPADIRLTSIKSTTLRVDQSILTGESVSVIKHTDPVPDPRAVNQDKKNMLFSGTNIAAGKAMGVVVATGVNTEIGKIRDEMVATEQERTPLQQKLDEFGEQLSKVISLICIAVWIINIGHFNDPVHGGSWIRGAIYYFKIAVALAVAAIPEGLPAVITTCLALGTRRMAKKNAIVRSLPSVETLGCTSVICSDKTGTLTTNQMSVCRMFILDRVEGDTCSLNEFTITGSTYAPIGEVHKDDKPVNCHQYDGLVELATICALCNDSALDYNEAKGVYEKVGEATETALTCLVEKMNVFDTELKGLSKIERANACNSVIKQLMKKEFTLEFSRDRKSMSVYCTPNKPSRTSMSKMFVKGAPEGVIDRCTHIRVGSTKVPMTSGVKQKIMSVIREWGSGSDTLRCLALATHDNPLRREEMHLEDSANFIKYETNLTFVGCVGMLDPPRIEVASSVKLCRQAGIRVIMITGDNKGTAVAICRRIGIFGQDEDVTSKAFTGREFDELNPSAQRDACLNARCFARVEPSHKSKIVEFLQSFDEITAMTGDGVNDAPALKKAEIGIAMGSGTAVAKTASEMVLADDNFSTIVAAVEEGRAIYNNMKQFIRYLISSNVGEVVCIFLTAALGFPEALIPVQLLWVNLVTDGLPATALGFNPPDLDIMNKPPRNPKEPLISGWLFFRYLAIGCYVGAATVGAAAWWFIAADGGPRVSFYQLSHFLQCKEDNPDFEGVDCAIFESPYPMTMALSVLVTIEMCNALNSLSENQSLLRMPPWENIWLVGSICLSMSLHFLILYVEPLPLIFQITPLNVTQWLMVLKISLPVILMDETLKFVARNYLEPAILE
UniProt P0DN84: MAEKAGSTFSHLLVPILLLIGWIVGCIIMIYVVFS

Biological target: T1, GFP-SERCA2a (EGFP fused to the N terminus of human SERCA2a) (human, UniProt P16615-2)
T1 construct: sarcoplasmic/endoplasmic reticulum calcium ATPase 2, isoform SERCA2a, human; A 5-residue linker stands between EGFP and SERCA2a; also called Ca-ATPase isoform 2a; FRET donor; source: HEK293, stably expressed (pcDNA3.1), in live cells; cell homogenates for the Ca-ATPase assay; not shown: EGFP, N-terminal, kept
Experiment: FRET or BRET; fluorescence lifetime (TCSPC) FRET in live HEK293 cells stably expressing GFP-SERCA2a (donor), RFP-labeled DWORF construct (acceptor) transiently transfected at varied DNA amounts; cells at 1 million per ml in PBS; E and mole fraction XDA from multiexponential analysis
Details: partners not purified

Binder: MAEKAGSTFSHLLVAILLLIGAIVGCIIMIYVVFS (peptide, UniProt P0DN84 1-35, looked up) [RFP–DWORF P15A/W22A double mutant]
- fold decrease of the fraction of SERCA2a containing bound DWORF (XDA) against WT DWORF: 4 fold
